Source: ChEMBL document CHEMBL1137888, “1,3-Dihydro-2,1,3-benzothiadiazol-2,2-diones and 3,4-dihydro-1H-2,1,3-benzothidiazin-2,2-diones as ligands for the NOP receptor” (2004)

Protein sequences, listed by entry. Tags and fused reporters are not part of them. Lines headed by an entry give the natural chain unless they say otherwise; changes in a name come on top.
UniProt P41146: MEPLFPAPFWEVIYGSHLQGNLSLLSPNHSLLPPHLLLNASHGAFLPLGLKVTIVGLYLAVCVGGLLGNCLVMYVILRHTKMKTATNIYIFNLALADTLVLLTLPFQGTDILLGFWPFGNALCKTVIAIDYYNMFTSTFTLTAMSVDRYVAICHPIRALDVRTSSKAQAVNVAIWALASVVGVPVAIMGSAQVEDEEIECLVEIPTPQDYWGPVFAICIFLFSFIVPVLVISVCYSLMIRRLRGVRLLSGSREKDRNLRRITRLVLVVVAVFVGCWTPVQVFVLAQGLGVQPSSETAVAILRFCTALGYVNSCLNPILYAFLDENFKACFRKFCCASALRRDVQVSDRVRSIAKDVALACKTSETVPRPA

Molecular target: Nociceptin receptor (Homo sapiens) (UniProt P41146)
Test: Agonist activity as maximal effect in [35S]-GTP-gamma binding assay compared to 60 nM N/OFQ

Row | Structure (SMILES) | Emax [%]
1 | O=S1(=O)NCc2ccccc2N1C1CCN(C2CCC3CCCCC3C2)CC1 (stereo not drawn) | 94
2 | CC(C)C1CCC(N2CCC(N3c4ccccc4CN(CC(N)=O)S3(=O)=O)CC2)CC1 (stereo not drawn) | 97
3 | O=S1(=O)Nc2ccccc2N1C1CCN(C2CCC3CCCCC3C2)CC1 (stereo not drawn) | 66
4 | CCCC1CCC(N2CCC(N3c4ccccc4CNS3(=O)=O)CC2)CC1 (stereo not drawn) | 96
5 | O=S1(=O)NCc2ccccc2N1C1CCN(CCC(c2ccccc2)c2ccccc2)CC1 | 99
6 | O=S1(=O)NCc2ccccc2N1C1CCN(C2CCCCCCC2)CC1 | 79
7 | O=S1(=O)NCc2ccccc2N1C1CCN(C2Cc3ccccc3C2)CC1 | 98
8 | CC(C)C1CCC(N2CCC(N3c4ccccc4NS3(=O)=O)CC2)CC1 (stereo not drawn) | 78
9 | COC(=O)CN1Cc2ccccc2N(C2CCN(C3CCC(C(C)C)CC3)CC2)S1(=O)=O (stereo not drawn) | 92
10 | CC(C)C1CCC(N2CCC(N3c4ccccc4CN(CC(=O)OC(C)(C)C)S3(=O)=O)CC2)CC1 (stereo not drawn) | 61
11 | CC(C)C1CCC(N2CCC(N3c4ccccc4CN(CC#N)S3(=O)=O)CC2)CC1 (stereo not drawn) | 98
12 | CC(C)C1CCC(N2CCC(N3c4ccccc4CN(CCNS(C)(=O)=O)S3(=O)=O)CC2)CC1 (stereo not drawn) | 98
13 | O=S1(=O)NCc2ccccc2N1C1CCN(Cc2ccc3ccccc3c2)CC1 | 83
